Each structure is given as a SMILES string.

Data on 1 compound can be found in patent US11117869B2, “Compounds, compositions and methods for treatment of myopia” (Aerie Pharmaceuticals, Inc., priority 2019, dated 2021).

The test system of this assay is myopia. Put plainly: Topical eye drop composition (Table 3): myopia progression or onset. The following applies: drop 4 times per day.

For the compound `CN1C2CCC1CC(OC(=O)C(C)(CO)c1ccccc1)C2.Cl` (stereo not shown) [Compound E22R], the “rate of progression of myopia” value is listed as “substantially slows”.
